Measurements: article PMC4544722 (Drug Design, Development and Therapy, 2015)

Key:
[1] = rats; cited from earlier work
[2] = stability of ECH in K-R buffer and intestinal perfusate; type: in vitro ADME, rat; details: K-R buffer solution and intestinal perfusate, 37°C, 2-hour incubation
[3] = single-pass intestinal perfusion model in situ
[4] = pharmacokinetic study after oral administration in rats; type: in vivo, rat; details: single oral dose, ECH alone and combinations
[5] = nonspecific binding of ECH to intestinal walls and tubes; type: in vitro ADME, rat; details: 2-h incubation
[6] = everted gut sac model in vitro
[7] = ECH 0.09 mg/mL, duodenum, jejunum, ileum versus colon

stability [2]: stable | highest permeability (Peff) in the whole intestine ([3]; in situ perfusion): 32.3 nm/s | effective permeability coefficient (Peff) ([3]; in situ perfusion, range over the study): 8.3 to 32.3 nm/s | concentration above which saturable absorption appeared ([3]; jejunum, ECH 0.03, 0.09, 0.27 mg/mL): higher than 0.09 mg/mL | pharmacokinetic model fit [4]: two-compartment model | apparent permeability coefficient (Papp) ([6]; everted gut sac, range over the study): 29.9 to 98.6 nm/s
Substance: Echinacoside
oral bioavailability [1]: 0.83% | site dependence of absorption (Ka and Peff) [3, 7]: higher absorption in small intestine segments compared to colon segment | nonspecific binding to intestinal wall and tubes [5]: no ECH was absorbed by intestinal wall and tubes | site dependence of absorption (F and Papp) [6, 7]: mostly absorbed in the small intestine rather than the colon
